# Data as given in PubChem BioAssay AID652010 (The Scripps Research Institute Molecular Screening Center, 2013).
# This is a selection; strong and weak results do not stand in their true shares. Activity calls are given as the source filed them.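 How the source made its calls: active means inhibition above the mean over all tested compounds plus 3 SD (cut at about 3.6% in these data); inactive means the rest.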
# Experiment: relief of DAX-1 repression of SF-1 activity – cell-based, luminescence, SF-1 (NR5A1), full-length DAX-1, primary screen (AID 652010);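 further: 0% = DAX-1 cells with DMSO and 100% = cells lacking DAX-1 with DMSO; higher inhibition means more luminescence from relief of DAX-1 repression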
# Settings: HEK293T StAR-luciferase reporter, SF-1/DAX-1 repression relief; at 6.8 µM; active compounds read high
row,SMILES,inhibition
1,N#Cc1ccc(C(=O)NCC2(N3CCCCC3)CCCCC2)cc1,inactive: 1.81%
2,CC(C)(C)OC(=O)N1CCC(N(C(=O)c2ccccc2)c2ccc(Cl)cc2)CC1,inactive: -0.31%
3,CC(C)(C)n1nnnc1C(c1cccc2ccccc12)N1CCC(n2c(=O)[nH]c3ccccc32)CC1 (stereo not given),inactive: 0.09%
4,CN(C)C1(CNC(=O)c2cccc(C#N)c2)CCCCC1,inactive: 0.54%
5,c1ccc(CN2CCC(Nc3ccccc3)CC2)cc1,inactive: -0.4%
6,C/C(N)=N\P(=O)(Oc1ccccc1)Oc1ccccc1,inactive: 0.48%
7,Cc1cc(N(CCCl)CCCl)ccc1C=O,inactive: -3.45%
8,CCCN1CCC(Nc2cc(OC)cc(OC)c2)CC1,inactive: 0.19%
9,O=c1[nH]c2ccccc2n1C1CCN(C(c2ccccc2)c2nnnn2C2CCCC2)CC1 (stereo not given),inactive: -1.93%
10,O=c1[nH]c2ccccc2n1C1CCN(C(c2cccs2)c2nnnn2C2CCCCC2)CC1 (stereo not given),inactive: -2.63%
11,NC(=O)C1(Nc2ccccc2)CCN(Cc2ccccc2)CC1,inactive: 0.85%
12,COc1ccc(C(=O)NCC2(N3CCOCC3)CCCCC2)cc1OC,inactive: 2.93%
13,O=c1[nH]c2ccccc2n1C1CCN(C(c2ccnc3ccccc23)c2nnnn2C2CCCC2)CC1 (stereo not given),inactive: 2.02%
14,CCCCn1nnnc1C(c1ccccc1)N1CCC(n2c(=O)[nH]c3ccccc32)CC1 (stereo not given),inactive: -1.95%
15,COc1cc(C(=O)NCC2(N3CCOCC3)CCCCC2)cc(OC)c1C,inactive: 1.64%
16,O=C(NCC1(N2CCOCC2)CCCCC1)c1cc(Br)ccc1Cl,inactive: -1.69%
17,O=C(OC1CN2CCC1CC2)C1c2ccccc2C=Cc2ccccc21 (stereo not given),inactive: -0.12%
18,O=c1[nH]c2ccccc2n1C1CCN(C(c2cccs2)c2nnnn2C2CCCC2)CC1 (stereo not given),inactive: -2.65%
19,CCCCn1nnnc1C(c1cccc(OC)c1OC)N1CCC(n2c(=O)[nH]c3ccccc32)CC1 (stereo not given),inactive: -3.69%
20,COc1cccc(C(c2nnnn2C(C)(C)C)N2CCC(n3c(=O)[nH]c4ccccc43)CC2)c1OC (stereo not given),inactive: -0.94%
21,CCOC(=O)N1CCC(Nc2ccc(C)cc2)CC1,inactive: -0.41%
22,N/C(=N\O)c1c(N)no[n+]1[O-],inactive: 0.38%

row,SMILES,inhibition
1,CC(C)(C)OC(=O)N1CCC(Nc2ccccc2)CC1,inactive: -1.27%
2,NN(c1ccccc1)C1CCN(CCc2ccccc2)CC1,inactive: -0.29%
3,O=C(O)C1(Nc2ccccc2)CCN(Cc2ccccc2)CC1,inactive: -0.29%
4,CCCOc1ccc(C(=O)NCC2(N(C)C)CCCCC2)cc1,inactive: -0.02%
5,O=c1[nH]c2ccccc2n1C1CCN(C(c2cc3ccccc3o2)c2nnnn2C2CCCC2)CC1 (stereo not given),inactive: -0.12%
6,CCOc1ncccc1C(=O)NCC1(N2CCOCC2)CCCCC1,inactive: -0.15%
7,CN1CCC(Nc2ccc(F)c(Cl)c2)CC1,inactive: -0.8%
8,CN1CCC(Nc2ccc(Cl)cc2)CC1,inactive: 0.95%
9,COc1cccc(C(=O)N(c2cc(C)cc(C)c2)C2CCN(C(=O)OC(C)(C)C)CC2)c1,inactive: 0.26%
10,COc1cccc(C(c2nnnn2C2CCCC2)N2CCC(n3c(=O)[nH]c4ccccc43)CC2)c1OC (stereo not given),inactive: -3.85%
11,COc1cc(OC)cc(C(=O)NCC2(N3CCOCC3)CCCCC2)c1,inactive: 0.59%
12,CCC(CO)(C(=O)OC1CN2CCC1CC2)c1ccccc1 (stereo not given),inactive: 1.14%
13,Cc1ccc(C(=O)NCC2(N3CCCCC3)CCCCC2)o1,inactive: 2.13%
14,Fc1ccccc1NC1CCN(Cc2ccccc2)CC1,inactive: 0.21%
15,Cc1ccc(NC2(C#N)CCN(Cc3ccccc3)CC2)cc1,inactive: 0.3%
16,CC(=O)N(c1ccccc1)C1CCNCC1,inactive: -0.13%
17,COc1cccc(C(c2nnnn2C2CCCCC2)N2CCC(n3c(=O)[nH]c4ccccc43)CC2)c1OC (stereo not given),inactive: -4.85%
18,CCC(c1nnnn1C1CCCCC1)N1CCC(n2c(=O)[nH]c3ccccc32)CC1 (stereo not given),inactive: 1.35%
19,O=c1[nH]c2ccccc2n1C1CCN(C(c2ccnc3ccccc23)c2nnnn2C2CCCCC2)CC1 (stereo not given),inactive: 1.58%
20,COc1cc(OC)cc(C(=O)NCC2(N3CCCCC3)CCCCC2)c1,inactive: 0.76%
21,O=C(NCC1(N2CCCCC2)CCCCC1)c1ccco1,inactive: -2.13%
22,Cn1c(=O)[nH]cc(N(CCCl)CCCl)c1=O,inactive: 0.63%

row,SMILES,inhibition
1,CN(C)c1ccc(C(=O)NCC2(N3CCCCC3)CCCCC2)cc1,active: 4.92%
2,Cc1ccccc1NC1(C#N)CCN(Cc2ccccc2)CC1,inactive: 0.18%
3,CC(C)(C)n1nnnc1C(c1ccnc2ccccc12)N1CCC(n2c(=O)[nH]c3ccccc32)CC1 (stereo not given),inactive: 3.17%
4,CCN1CCC(Nc2cccc(F)c2)CC1,inactive: 0.24%
5,COc1ccc(C(c2nnnn2C2CCCCC2)N2CCC(n3c(=O)[nH]c4ccccc43)CC2)cc1 (stereo not given),inactive: -0.6%
6,O=C(NCC1(N2CCCCC2)CCCCC1)c1ccc(F)cc1,inactive: 0.13%
7,CCCCOc1ccc(C(=O)NCC2(N3CCOCC3)CCCCC2)cc1,inactive: -0.3%
8,O=P1(N(CCCl)CCCl)SCCCS1,inactive: -1.08%
9,CCCCn1nnnc1C(c1cc2ccccc2o1)N1CCC(n2c(=O)[nH]c3ccccc32)CC1 (stereo not given),inactive: 0.3%
10,CCOC(=O)N1CCC(Nc2ccc(F)cc2)CC1,inactive: 0.01%
11,COc1ccc(NC2CCN(CCc3ccccc3)CC2)c(OC)c1,inactive: 0.59%
12,CC(C)(C)n1nnnc1C(c1ccccc1)N1CCC(n2c(=O)[nH]c3ccccc32)CC1 (stereo not given),inactive: 1.77%
13,O=C1CCN(Cc2ccccc2)CC1,inactive: 1.07%
14,CCOc1ccc(C)cc1CN(CCCl)CCCl,inactive: -0.17%
15,COc1cc(C(=O)NCC2(N(C)C)CCCCC2)ccc1OC(F)F,inactive: -0.04%
16,CCOC(=O)N1CCC(Nc2cccc(C)c2)CC1,inactive: -0.15%
17,O=c1[nH]c2ccccc2n1C1CCN(C(c2cccc3ccccc23)c2nnnn2C2CCCC2)CC1 (stereo not given),inactive: 2.62%
18,O=c1[nH]c2ccccc2n1C1CCN(C(c2ccccc2)c2nnnn2C2CCCCC2)CC1 (stereo not given),inactive: 0.18%
19,CSc1ccccc1C(=O)NCC1(N2CCCCC2)CCCCC1,inactive: -0.08%
20,Cc1cccc(NC2(C#N)CCN(Cc3ccccc3)CC2)c1,inactive: 0.95%
21,COc1ccc(C(=O)NCC2(N3CCCCC3)CCCCC2)cc1,inactive: 0.88%
22,CCC(c1nnnn1C1CCCC1)N1CCC(n2c(=O)[nH]c3ccccc32)CC1 (stereo not given),inactive: -1.43%

row,SMILES,inhibition
1,CC(C)(C)OC(=O)N1CCC(N(C(=O)c2ccccc2)c2ccc(F)cc2)CC1,inactive: -0.19%
2,COc1ccc(C(=O)NCC2(N3CCCCC3)CCCCC2)c(OC)c1OC,inactive: 1.06%
3,O=C(NCC1(N2CCCCC2)CCCCC1)c1ccc(=O)[nH]c1,active: 6.38%
4,CCCCn1nnnc1C(c1cccs1)N1CCC(n2c(=O)[nH]c3ccccc32)CC1 (stereo not given),inactive: -3.78%
5,O=C(NCC1(N2CCCCC2)CCCCC1)c1cccs1,inactive: 2.9%
6,CCCCn1nnnc1C(CC)N1CCC(n2c(=O)[nH]c3ccccc32)CC1 (stereo not given),inactive: -1.04%
7,O=c1[nH]c2ccccc2n1C1CCN(C(c2cc3ccccc3o2)c2nnnn2C2CCCCC2)CC1 (stereo not given),inactive: 3.03%
8,O=C(OC1CN2CCC1CC2)C1c2ccccc2Oc2ccccc21 (stereo not given),inactive: 0.1%
9,N#CC1(Nc2ccccc2)CCN(Cc2ccccc2)CC1,inactive: -0.31%
10,O=C(NCC1(N2CCCCC2)CCCCC1)c1ccc(Cl)s1,inactive: 1.37%
11,COc1ccc(Cl)cc1C(=O)NCC1(N2CCOCC2)CCCCC1,inactive: -0.16%
12,CCOC(=O)N1CCC(Nc2ccc(OC)cc2)CC1,inactive: 0.08%
13,CCCCn1nnnc1C(c1ccc(OC)cc1)N1CCC(n2c(=O)[nH]c3ccccc32)CC1 (stereo not given),inactive: -1.19%
14,O=c1[nH]c2ccccc2n1C1CCN(C(c2ccccc2OC(F)(F)F)c2nnnn2C2CCCCC2)CC1 (stereo not given),inactive: 0.71%
15,O=C(NCC1(N2CCCCC2)CCCCC1)c1ccc(Cl)nc1,active: 6.16%
16,Cc1cc(C)cc(N(C(=O)c2ccccc2)C2CCN(C(=O)OC(C)(C)C)CC2)c1,inactive: -0.55%
17,O=C(NCC1(N2CCOCC2)CCCCC1)c1cc2ccccc2o1,inactive: 0.49%
18,COc1cc(OC)c(C(=O)NCC2(N(C)C)CCCCC2)cc1OC,inactive: 0%
19,CCC(c1nnnn1C(C)(C)C)N1CCC(n2c(=O)[nH]c3ccccc32)CC1 (stereo not given),inactive: -1.96%
20,O=C(NCC1(N2CCOCC2)CCCCC1)c1cc(F)c(F)cc1Cl,inactive: -0.36%
21,CCCCn1nnnc1C(c1ccnc2ccccc12)N1CCC(n2c(=O)[nH]c3ccccc32)CC1 (stereo not given),inactive: -0.27%
22,CC(C)c1ccc(NC2CCN(C(=O)OC(C)(C)C)CC2)cc1,inactive: 0.97%

row,SMILES,inhibition
1,COC(=O)C1(Nc2ccccc2)CCN(Cc2ccccc2)CC1,inactive: -0.31%
2,COc1ccc(CN(CCCl)CCCl)cc1Cl,inactive: -0.38%
3,CN(C)c1cccc(C(=O)NCC2(N3CCCCC3)CCCCC2)c1,inactive: 0.8%
4,COc1ccc(C(c2nnnn2C2CCCC2)N2CCC(n3c(=O)[nH]c4ccccc43)CC2)cc1 (stereo not given),inactive: -0.12%
5,Cc1ccc(C(=O)NCC2(N(C)C)CCCCC2)o1,inactive: 1.55%
6,CCCOc1ccc(C(=O)NCC2(N(C)C)CCCCC2)cc1OC,inactive: 0.05%
7,O=C(NCC1(N2CCCCC2)CCCCC1)c1cncc(Br)c1,active: 4.3%
8,CN1CCC(Nc2cccc(F)c2)CC1,inactive: 0.18%
9,CCN1CCC(Nc2ccc(Cl)cc2)CC1,inactive: -0.53%
10,N#CC1(Nc2ccccc2)CCN(CCc2ccccc2)CC1,inactive: -0.4%
11,O=c1[nH]c2ccccc2n1C1CCN(C(c2ccccc2OC(F)(F)F)c2nnnn2C2CCCC2)CC1 (stereo not given),inactive: 0.48%
12,CSc1ccc(C(=O)NCC2(N3CCOCC3)CCCCC2)cc1,active: 5.54%
13,O=C(NCC1(N2CCCCC2)CCCCC1)c1cccc([N+](=O)[O-])c1,inactive: 2.39%
14,CC(C)(C)n1nnnc1C(c1ccccc1OC(F)(F)F)N1CCC(n2c(=O)[nH]c3ccccc32)CC1 (stereo not given),inactive: 0.96%
15,O=C(NCC1(N2CCCCC2)CCCCC1)c1ccc(OC(F)F)cc1,inactive: 2.19%
16,O=C(NCC1(N2CCOCC2)CCCCC1)c1cc(=O)[nH]c2ccccc12,inactive: 0.24%
17,COc1cc(C(=O)NCC2(N3CCCCC3)CCCCC2)ccc1OC(F)F,inactive: 0.88%
18,CCCCn1nnnc1C(c1cccc2ccccc12)N1CCC(n2c(=O)[nH]c3ccccc32)CC1 (stereo not given),inactive: -4.4%
19,CC(C)c1ccc(C(=O)NCC2(N3CCOCC3)CCCCC2)cc1,inactive: 3.13%
20,COc1ccc(NC2CCN(C(=O)OC(C)(C)C)CC2)cc1,inactive: 0.33%
21,CN1CCN(CCOC(=O)C(O)(c2ccccc2)c2ccccc2)CC1,inactive: 0.56%
22,O=C(NCC1(N2CCCCC2)CCCCC1)c1cccc(C(F)(F)F)c1,inactive: 0.73%
